Target: PARP7 (Homo sapiens (Human), UniProt Q7Z3E1)
Experiment: TR-FRET assay: displacement of biotinylated Probe A from the TIPARP active site (Enzymatic Assay for Inhibition of PARP7)
Details: TIPARP 6 nM, Probe A 2 nM, 25° C.
Protocol: Example A. Enzymatic Assay for Inhibition of PARP7
Displacement of Probe A, a biotinylated probe binding to the TIPARP active site, was measured using a time-resolved fluorescence energy transfer (TR-FRET) assay. 20 nL of a dose response curve of each test compound was spotted in black 384-well polystyrene proxiplates (Perkin Elmer) using a Mosquito (TTP Labtech). Reactions were performed in a 8 μl volume by adding 6 μL of TIPARP and Probe A in assay buffer (20 mM HEPES pH=8, 100 mM NaCl, 0.1% bovine serum albumin, 2 mM DTT and 0.002% Tween20), incubating with test compound at 25° C. for 30 min, then adding 2 μL of ULight-anti 6×His and LANCE Eu-W1024 labeled streptavidin (Perkin Elmer). The final concentrations of TIPARP and Probe A were 6 nM and 2 nM, respectively. The final concentration of ULight-anti 6×His and LANCE Eu-W1024 labeled streptavidin were 4 nM and 0.25 nM, respectively. Reactions were incubated at 25° C. for an additional 30 min, then read on an Envision platereader equipped with a LANCE/DELFIA top mirror (Perkin Elmer) using excitation of 320 nm and emission of 615 nm and […] with a […]. The ratio of the 665/615 nm emission were calculated for each well to determine the amount of complex of TIPARP and Probe Ain each well. […]

Amino acid sequences for entries named in this document (tags omitted).
UniProt Q7Z3E1, whole entry: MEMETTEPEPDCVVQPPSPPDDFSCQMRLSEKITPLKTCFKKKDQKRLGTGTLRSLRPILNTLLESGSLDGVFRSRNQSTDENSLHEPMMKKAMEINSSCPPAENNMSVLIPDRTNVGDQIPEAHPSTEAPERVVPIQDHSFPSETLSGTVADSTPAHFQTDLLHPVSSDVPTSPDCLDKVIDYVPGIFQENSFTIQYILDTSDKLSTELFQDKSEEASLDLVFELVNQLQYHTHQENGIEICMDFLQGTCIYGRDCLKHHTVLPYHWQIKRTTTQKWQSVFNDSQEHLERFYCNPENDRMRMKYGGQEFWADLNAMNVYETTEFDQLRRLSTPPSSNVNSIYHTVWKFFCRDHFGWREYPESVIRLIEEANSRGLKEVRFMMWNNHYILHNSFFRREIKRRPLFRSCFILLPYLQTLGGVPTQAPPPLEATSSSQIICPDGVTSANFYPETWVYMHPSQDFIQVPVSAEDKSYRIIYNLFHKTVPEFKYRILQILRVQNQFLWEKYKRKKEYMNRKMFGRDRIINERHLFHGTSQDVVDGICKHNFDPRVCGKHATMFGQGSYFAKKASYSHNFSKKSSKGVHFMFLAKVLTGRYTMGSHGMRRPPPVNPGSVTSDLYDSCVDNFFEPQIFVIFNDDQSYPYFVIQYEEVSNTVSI

## C[C@@H](CO[C@@H]1CCN(C2CCN(c3cnc(C#N)cn3)CC2)C1=O)Nc1cn[nH]c(=O)c1C(F)(F)F
  IC50: < 0.1 µM

## C[C@@H](CO[C@@H]1CCN(C2CCN(c3cnc(Cl)cn3)CC2)C1=O)Nc1cn[nH]c(=O)c1C(F)(F)F
  IC50: < 0.1 µM

Source: patent publication US11691969B2, “Pyridazinones as PARP7 inhibtors” (Ribon Therapeutics, Inc., priority 2019, dated 2023)
